Experimental data published in ChEMBL document CHEMBL4765270, “Piperidine propionamide as a scaffold for potent sigma-1 receptor antagonists and mu opioid receptor agonists for treating neuropathic pain” (Eur J Med Chem, 2020).
pKi: −log10 of the molar value.

Sequences of proteins named here, by UniProt entry; tags and fusion partners are left off.
UniProt Q60492, whole entry, looked up: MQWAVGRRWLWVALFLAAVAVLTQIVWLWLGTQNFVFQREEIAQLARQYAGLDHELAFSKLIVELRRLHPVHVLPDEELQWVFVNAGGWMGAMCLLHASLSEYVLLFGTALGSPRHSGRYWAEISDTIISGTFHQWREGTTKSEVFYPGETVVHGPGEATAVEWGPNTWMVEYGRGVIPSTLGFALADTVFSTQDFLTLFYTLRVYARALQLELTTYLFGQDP

Target: Sigma non-opioid intracellular receptor 1 (Cavia porcellus, UniProt Q60492)
Test: Displacement of [3H]-(+)-pnetazocin from sigma1 receptor in guinea pig brain membrane incubated for 120 mins by scintillation counting method

Compound | pKi
C[C@H]1[C@H]2Cc3ccc(O)cc3[C@@]1(C)CCN2CCc1ccccc1 | 8.41
C[C@@H]1[C@@H]2Cc3ccc(O)cc3[C@]1(C)CCN2CCc1ccccc1 | 7.21
